Results published in patent publication US8481501B2 (priority 2004, dated 2013).

The chains behind the UniProt entries cited, without tags or fusion partners.
UniProt P42866, whole entry: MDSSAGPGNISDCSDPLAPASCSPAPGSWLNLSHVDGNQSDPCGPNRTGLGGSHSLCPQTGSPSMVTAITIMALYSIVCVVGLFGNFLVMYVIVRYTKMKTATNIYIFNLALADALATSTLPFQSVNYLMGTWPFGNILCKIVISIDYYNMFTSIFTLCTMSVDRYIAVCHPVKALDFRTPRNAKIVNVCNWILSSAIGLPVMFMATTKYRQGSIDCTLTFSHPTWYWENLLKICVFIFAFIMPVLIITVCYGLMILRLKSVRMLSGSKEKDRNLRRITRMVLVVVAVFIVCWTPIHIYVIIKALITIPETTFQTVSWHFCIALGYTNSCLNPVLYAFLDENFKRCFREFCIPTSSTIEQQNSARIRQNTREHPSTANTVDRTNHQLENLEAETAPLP

Molecular target: T1, mu receptor (Mus musculus, UniProt P42866)
T1 construct: expressed in transfected cells
Assay type: cell-based

Compound: CN1CCC23c4c5ccc(O)c4OC2C(O)C=CC3C1C5 (stereo not shown) [morphine, reference compound]
- Mu receptor internalization % control: 93%
